In paper PMC3198402 (PLoS ONE, 2011) one finds Kd data, which are given here for 1 compound.

This experiment deals with A*0301 (Homo sapiens, UniProt P04439). Kind of experiment: biochemical. The class given is binding.

As to `CSCC[C@H](NC(=O)[C@H](CCCCN)NC(=O)[C@H](Cc1c[nH]c2ccccc12)NC(=O)[C@H](CC(C)C)NC(=O)[C@H](CC(N)=O)NC(=O)[C@H](Cc1ccc(O)cc1)NC(=O)[C@H](CCSC)NC(=O)[C@@H](N)C(C)C)C(=O)N[C@@H](CCCCN)C(=O)O` [YFV A3 15898], the Kd worked out at 4 nM.

What is called Kd is the concentration at which binding is half-saturated. Low values mean a tighter complex, high ones a looser complex.
